Molecules are shown by their SMILES.

The chains behind the UniProt entries cited, without tags or fusion partners.
UniProt P35462, whole entry: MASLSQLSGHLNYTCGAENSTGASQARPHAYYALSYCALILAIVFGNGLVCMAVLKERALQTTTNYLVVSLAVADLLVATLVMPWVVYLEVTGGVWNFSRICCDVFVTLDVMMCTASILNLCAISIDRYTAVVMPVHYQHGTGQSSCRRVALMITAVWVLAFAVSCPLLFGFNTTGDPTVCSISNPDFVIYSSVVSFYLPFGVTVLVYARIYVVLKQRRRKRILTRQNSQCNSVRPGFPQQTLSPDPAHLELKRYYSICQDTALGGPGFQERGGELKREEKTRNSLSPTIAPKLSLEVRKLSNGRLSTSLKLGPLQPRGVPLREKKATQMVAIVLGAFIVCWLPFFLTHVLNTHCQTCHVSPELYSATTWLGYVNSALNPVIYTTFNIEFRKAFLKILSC
UniProt P14416, whole entry: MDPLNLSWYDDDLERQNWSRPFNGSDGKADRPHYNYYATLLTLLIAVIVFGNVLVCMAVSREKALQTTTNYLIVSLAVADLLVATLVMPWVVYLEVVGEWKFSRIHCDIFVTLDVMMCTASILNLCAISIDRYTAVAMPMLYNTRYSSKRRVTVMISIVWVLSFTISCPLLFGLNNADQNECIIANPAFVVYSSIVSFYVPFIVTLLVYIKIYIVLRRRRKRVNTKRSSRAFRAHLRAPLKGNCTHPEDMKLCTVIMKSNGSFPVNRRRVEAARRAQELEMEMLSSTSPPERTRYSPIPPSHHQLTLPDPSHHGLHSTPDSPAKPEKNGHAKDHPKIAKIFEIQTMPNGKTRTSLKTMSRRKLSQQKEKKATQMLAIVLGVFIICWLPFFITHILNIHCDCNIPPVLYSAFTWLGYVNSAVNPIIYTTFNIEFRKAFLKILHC

Test [1] addresses human dopamine D3 receptors in CHO cells (Homo sapiens (Human), UniProt P35462). Description: D3 inhibition of quinpirole stimulation of mitogenesis (antagonist assay). It is filed as cell-based. To be noted: inhibition of 30 nM quinpirole stimulated mitogenesis, CHOp cells; read-out: IC50 ± S.E.M., D3.
Test [2] has as its target human dopamine D2-long (D2) receptor (Homo sapiens (Human), UniProt P14416). Description: Human D2-like receptor competition binding in HEK cells, D2. As to conditions: hD2L.
For test [3], the target named is D2 receptor (human) in CHOp-cells (Homo sapiens (Human), UniProt P14416). The test is described as follows: D2 inhibition of quinpirole stimulation of mitogenesis (antagonist assay). As to conditions: inhibition of 30 nM quinpirole stimulated mitogenesis, read-out: IC50 ± S.E.M., D2. It is filed as cell-based.

As to `COc1ccccc1N1CCN(C/C=C/CNC(=O)c2ccc3c(c2)Cc2ccccc2-3)CC1` [Compound 15, N-(4-(4-(2-methoxyphenyl)piperazin-1-yl)-trans-but-2-enyl)-9H-fluorene-2-carboxamide], the IC50 – broadly, the point on the concentration scale where inhibition reaches its midpoint – in test [1] was 18.9 ± 4.2 nM. In the case of `COc1ccccc1N1CCN(C/C=C/CNC(=O)c2ccc(-c3ccccn3)cc2)CC1` [Compound 14, N-(4-(4-(2-Methoxy-phenyl)-piperazin-1-yl)-trans-but-2-enyl)-4-pyridin-2-yl-benzamide], the Ki – broadly, a dissociation constant, usually derived from enzyme kinetics or from competition with a known ligand – in test [2] is 69 nM. The IC50 in test [3] turned out to be 175 ± 17 nM.

Source of the values: patent US8748608B2, “4-phenylpiperazine derivatives with functionalized linkers as dopamine D3 receptor selective ligands and methods of use” (The United States of America as Represented by the …, priority 2007, dated 2014).
